Source: PubChem BioAssay (National Center for Advancing Translational Sciences (NCATS))
Shown are actives, neighbours in structure and some others; about 16% of the full set was active somewhere.
DT40 TDP1 no CPT: qHTS for Inhibitors of human tyrosyl-DNA phosphodiesterase 1 (TDP1): qHTS in cells in absence of CPT | AID 686978, 2013 | DT40 Tdp1-/- hTDP1 cells, no CPT, ATP luminescence, 48 h | Potency, µM (doses to about 46.2 µM), most hits filed as inhibitors | 420,000 tested, 15% active; also: nearly all actives have a fitted effect of over 55% in size
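Seeded 400 DT40-hTDP1 cells/well (vehicle DMSO, no 20 nM CPT); pinned compounds; ≥48 hr at 37 °C; CellTiter-Glo luminescence as viability measure.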
TDP1 cell CPT: DT40-hTDP1 cell growth loss with CPT; chicken DT40 Tdp1-/-;hTDP1 cells + 20 nM CPT, ATP luminescence, 48 h; Potency, µM (top dose mostly 46.2 µM), actives largely listed as inhibitors; 420,000 tested, 12% active; AID 686979; also: nearly all actives have a fitted effect of over 55% in size
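Chicken DT40 Tdp1-/- cells complemented with human TDP1, 400 cells/well, exposed to compounds plus 20 nM camptothecin for at least 48 h at 37 C; viability read as ATP content by CellTiter-Glo luminescence.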
TDP1 block: inhibitors of human tyrosyl-DNA phosphodiesterase TDP1; AID 485290; 350,000 tested, 0.28% active; Potency, µM (top dose mostly 130 µM), hits mostly inhibitors; Q9NUW8; recombinant TDP1, AlphaScreen DNA substrate cleavage; also: nearly all actives have a fitted effect of over 40% in size
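Recombinant E. coli-expressed Tdp1 (1 nM) preincubated with compound 15 min at RT, then 5'-biotin/3'-phosphotyrosine-FITC DNA substrate (15 nM) added for 5 min. AlphaScreen beads (10 ug/ml) added, 10 min RT; tyrosine-FITC cleavage read as signal loss.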
miR-21 reporter: miR-21 reporter, rising signal. HeLa miR-21 FLuc reporter, luciferase, 48 h. Potency, µM (highest dose often 38.3 µM). 340,000 tested, under 10 active. AID 2288; active = well fitted rising curve with a large enough effect; inconclusive = small, poorly fitted or top-dose-only effect; inactive = no such curve, though single readings can be large or run the other way;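 further: miR-21 action dims this reporter so a rising signal means less miR-21 action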
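HeLa miR-21-FLuc reporter line, endogenous miR-21; 2000 cells/well in DMEM/10% FBS; compound titration up to ~40uM final, 48 h, 37 degree Celsius; luciferase detection reagent, 15 min lysis, CCD luminescence.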
uPA generation: blocks generation of uPA at the cell surface. cell surface uPA generation assay, qHTS. Potency, µM (series often up to 38.3 µM), actives largely listed as inhibitors. 330,000 tested, 0.31% active. AID 540303; active = well fitted inhibition curve with a large enough effect; inconclusive = small, poorly fitted or top-dose-only effect; inactive = no such curve, though single readings can be large or run the other way; tested in mouse RAW 264.7 cells; also: nearly all actives have a fitted effect of over 55% in size
Of the large screens only hits and unclear results are named; the others gave an inactive call. Unless noted, calls follow the shape of the dose curve; as a rule, active = well fitted curve in the direction sought with a large enough effect; inconclusive = small, poorly fitted or top-dose-only effect, or another doubt; inactive = no such curve, though single readings can be large; an effect the other way counts as inactive or inconclusive.

C[C@H]1CN([C@@H](C)CO)S(=O)(=O)c2ccc(Br)cc2O[C@@H]1CN(C)Cc1cccc(F)c1	DT40 TDP1 no CPT 16µM, TDP1 cell CPT 16µM (no result: TDP1 block, miR-21 reporter, uPA generation)
CC(=O)c1ccc(N(C(=O)c2csnn2)C(C(=O)NC2CCCC2)c2ccccc2)cc1 (stereo not given)	none
COc1ccc(C(=O)N/C(=C\c2cn(C)c3ccccc23)C(=O)N2CCOCC2)cc1OC	none
CCOC(=O)c1cc(C)n(CC2CCC(C(=O)Nc3ccc(Cl)cc3)CC2)c1C (stereo not given)	DT40 TDP1 no CPT 12µM, TDP1 cell CPT 18µM, miR-21 reporter inconclusive (no result: uPA generation)
CS(=O)(=O)N1CCC(C(=O)Nc2cccc(Cl)c2)CC1	none
CCOC(=O)c1cc(C)n(CC2CCC(C(=O)Nc3ccc(OC)c(OC)c3)CC2)c1C (stereo not given)	none (no result: uPA generation)
CCOC(=O)c1cc(C)n(CC2CCC(C(=O)Nc3cccc(Cl)c3)CC2)c1C (stereo not given)	DT40 TDP1 no CPT 16µM, TDP1 cell CPT inconclusive (no result: uPA generation)
O=C(O)c1cccc(Nc2ncnc3scc(-c4ccccc4)c23)c1	DT40 TDP1 no CPT inconclusive, TDP1 cell CPT inconclusive (no result: TDP1 block, uPA generation)
COc1cccc(/C=N/Nc2ncnc3scc(-c4ccccc4)c23)c1O	DT40 TDP1 no CPT 1.5µM, TDP1 cell CPT 1µM
COc1cccc(/C=N/Nc2ncnc(Cl)c2N)c1O	DT40 TDP1 no CPT 0.52µM, TDP1 cell CPT 0.82µM
COc1ccc(/C=N/Nc2ncnc(Cl)c2N)cc1OC	DT40 TDP1 no CPT inconclusive
COc1cccc(/C=N/Nc2nccnc2Cl)c1O	DT40 TDP1 no CPT 4.6µM, TDP1 cell CPT 3.3µM
COc1ccc(/C=N/Nc2nccnc2Cl)cc1	DT40 TDP1 no CPT 21µM, TDP1 cell CPT 9.2µM, uPA generation inconclusive
CC(C)NC(=O)N(O)C1N(Cc2ccc3c(c2)OCO3)C(=S)SC1(C)C (stereo not given)	DT40 TDP1 no CPT 15µM, TDP1 cell CPT inconclusive
CC1(C)CC(=O)c2sc(NC(=O)C3COc4ccccc4O3)nc2C1 (stereo not given)	none
CCOc1cc(C)c(S(=O)(=O)Nc2ccc3cn[nH]c3c2)cc1C	DT40 TDP1 no CPT 10µM, TDP1 cell CPT 18µM
Cc1ccc(S(=O)(=O)Nc2ccc3cn[nH]c3c2)c(C)c1	TDP1 cell CPT inconclusive (no result: miR-21 reporter)
O=C(/C=C/c1ccc(O)c(O)c1)c1ccc(S(=O)(=O)N2CCCCCC2)cc1	DT40 TDP1 no CPT 5.2µM, TDP1 cell CPT 4.6µM
COC(=O)c1ccc(S(=O)(=O)N2CCCCCC2)cc1	none
COc1cc(/C=N/NC(=O)c2cccc(NC(=O)c3ccccc3)c2)ccc1O	DT40 TDP1 no CPT inconclusive
CN(C)S(=O)(=O)c1cccc(NC(=S)NN=C(Cc2ccccc2)Cc2ccccc2)c1	DT40 TDP1 no CPT 5.2µM, TDP1 cell CPT 5.8µM
CN(C)S(=O)(=O)c1cccc(NC(=S)NC(=O)c2ccco2)c1	TDP1 cell CPT inconclusive (no result: miR-21 reporter)
COc1cc(/C=N/NC(=S)Nc2cccc(S(=O)(=O)N(C)C)c2)ccc1O	DT40 TDP1 no CPT 18µM, TDP1 cell CPT inconclusive
CC1CN(C(=S)Nc2ccccc2)N(c2ccccc2)C1 (stereo not given)	none
Cc1ccc2nc3cc([N+](=O)[O-])cc([N+](=O)[O-])c3cc2c1	DT40 TDP1 no CPT 0.58µM, TDP1 cell CPT 0.46µM, uPA generation inconclusive
CC(C)(C)c1ccc(C(=O)NCc2nnc(SCC(=O)N3CCCC3)o2)cc1	DT40 TDP1 no CPT inconclusive (no result: TDP1 block, miR-21 reporter, uPA generation)
Cc1ccc([C@H]2C[C@H](n3cc(COC(=O)c4ccccc4)nn3)[C@@H](O)CN2Cc2cccs2)cc1	DT40 TDP1 no CPT inconclusive (no result: TDP1 block, miR-21 reporter, uPA generation)
Cc1ccc([C@H]2C[C@@H](n3cc(COC(=O)c4ccccc4)nn3)[C@H](O)CN2Cc2cccs2)cc1	DT40 TDP1 no CPT 21µM, TDP1 cell CPT inconclusive (no result: TDP1 block, miR-21 reporter, uPA generation)
O=C(OCc1cn([C@H]2C[C@H](c3ccccc3)N(Cc3cccs3)C[C@@H]2O)nn1)c1ccccc1	DT40 TDP1 no CPT 21µM, TDP1 cell CPT inconclusive (no result: TDP1 block, miR-21 reporter, uPA generation)
COc1cc(NC(=O)N2CCC3(CC2)Nc2cc(F)ccc2-n2cccc23)cc(OC)c1OC	DT40 TDP1 no CPT 26µM, TDP1 cell CPT 16µM (no result: uPA generation)
CC(=O)Nc1ccc(N2C(C(C)=O)=NN(c3ccc(Cl)cc3)C2c2sccc2C)cc1 (stereo not given)	DT40 TDP1 no CPT 23µM, TDP1 cell CPT 23µM (no result: uPA generation)
